In paper PMC10165889 (2023) one finds IC50 data, which are given here for one compound.

By UniProt entry, the sequences of proteins in these tests, tags left out. Residues count along the entry.
UniProt P25440, 344-453 limits assumed: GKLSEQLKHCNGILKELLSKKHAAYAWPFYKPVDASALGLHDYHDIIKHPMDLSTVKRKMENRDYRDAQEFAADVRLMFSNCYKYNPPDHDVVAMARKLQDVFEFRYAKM

This experiment addresses BRD2(BD2) (Homo sapiens, UniProt P25440). The experiment is described as follows: TR-FRET binding assay, BRD2. In general terms: TR-FRET usually uses a lanthanide donor and a delayed reading to cut background.

As a reminder, the IC50 is the midpoint of a concentration-inhibition curve. Read a high IC50 as lower potency. Compound `Cc1sc2c(c1C)C(c1ccc(Cl)cc1)=N[C@@H](CC(=O)Nc1ccc(O)cc1)c1nnc(C)n1-2` [reference compound] registered an IC50 of 3.2 nM.
